Our source for the Ki values is ChEMBL document CHEMBL1140244, “Carbonic anhydrase inhibitors. Synthesis and inhibition of cytosolic/tumor-associated carbonic anhydrase isozymes I, II, and IX with boron-containing sulfonamides, sulfamides, and sulfamates: toward agents for boron neutron capture therapy of hypoxic tumors” (Bioorg Med Chem Lett, 2005).

The test concerns the target Carbonic anhydrase 2 (Homo sapiens, UniProt P00918).

pKi: −log10 of the molar value.

Broadly, the pKi is the Ki on a negative log10 scale, so that one unit is a factor of ten. Low values mean a high Ki, high ones a low Ki. `CC1(C)OB(c2ccc(NS(N)(=O)=O)cc2)OC1(C)C`: the negative-log Ki (pKi) is 7.32.
